# Assay results reported in ChEMBL document CHEMBL2046359, “Novel tricyclic indeno[2,1-d]pyrimidines with dual antiangiogenic and cytotoxic activities as potent antitumor agents” (Bioorg Med Chem, 2012).
# Assay: Inhibition of Escherichia coli thymidylate synthase
smiles,measurement,value
Nc1nc2[nH]cc(CCc3ccc(C(=O)N[C@@H](CCC(=O)O)C(=O)O)cc3)c2c(=O)[nH]1 [PEMETREXED],IC50,15 µM
